Only a part is listed here, and it is no random draw. Some salts or complexes appear as unconnected parts, following the source record. The source made the active and inactive calls. Rule as the data show it: active = inhibition above about 9.5%; inactive = the rest.

The chains behind the UniProt entries cited, without tags or fusion partners.
UniProt P19174, whole entry: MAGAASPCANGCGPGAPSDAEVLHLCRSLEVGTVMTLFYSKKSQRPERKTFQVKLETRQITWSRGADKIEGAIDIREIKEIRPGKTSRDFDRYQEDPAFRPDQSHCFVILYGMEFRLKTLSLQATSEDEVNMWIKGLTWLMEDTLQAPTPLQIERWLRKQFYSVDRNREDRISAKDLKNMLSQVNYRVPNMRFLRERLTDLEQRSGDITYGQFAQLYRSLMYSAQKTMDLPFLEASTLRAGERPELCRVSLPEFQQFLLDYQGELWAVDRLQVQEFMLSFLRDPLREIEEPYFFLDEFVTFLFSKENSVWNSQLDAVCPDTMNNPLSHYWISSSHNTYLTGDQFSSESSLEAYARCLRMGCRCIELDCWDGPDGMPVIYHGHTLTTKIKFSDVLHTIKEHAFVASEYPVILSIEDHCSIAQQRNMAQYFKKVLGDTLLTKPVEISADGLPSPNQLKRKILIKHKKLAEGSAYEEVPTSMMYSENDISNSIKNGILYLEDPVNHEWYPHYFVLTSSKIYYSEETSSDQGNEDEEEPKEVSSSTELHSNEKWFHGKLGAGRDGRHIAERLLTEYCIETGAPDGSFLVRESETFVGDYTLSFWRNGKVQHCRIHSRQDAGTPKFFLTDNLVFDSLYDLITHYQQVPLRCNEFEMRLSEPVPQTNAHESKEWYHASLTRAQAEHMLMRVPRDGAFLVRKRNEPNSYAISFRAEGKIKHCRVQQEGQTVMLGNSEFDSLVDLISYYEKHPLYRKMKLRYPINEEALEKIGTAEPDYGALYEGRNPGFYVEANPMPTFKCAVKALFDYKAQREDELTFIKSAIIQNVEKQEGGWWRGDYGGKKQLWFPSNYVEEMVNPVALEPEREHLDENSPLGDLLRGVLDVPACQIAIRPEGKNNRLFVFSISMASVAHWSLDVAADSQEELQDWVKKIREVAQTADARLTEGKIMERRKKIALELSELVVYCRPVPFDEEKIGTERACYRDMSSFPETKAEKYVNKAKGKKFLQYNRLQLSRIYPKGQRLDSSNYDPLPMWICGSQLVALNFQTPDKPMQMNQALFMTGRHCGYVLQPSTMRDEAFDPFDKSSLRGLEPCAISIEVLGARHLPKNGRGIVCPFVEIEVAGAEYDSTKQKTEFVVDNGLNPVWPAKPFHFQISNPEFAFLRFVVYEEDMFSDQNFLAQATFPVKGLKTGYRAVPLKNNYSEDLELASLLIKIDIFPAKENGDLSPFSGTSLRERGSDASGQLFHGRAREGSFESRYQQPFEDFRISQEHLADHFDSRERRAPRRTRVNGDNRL

The inhibition is the relative decrease from the control value, in per cent.

The target in this assay is 1-phosphatidylinositol 4,5-bisphosphate phosphodiesterase gamma-1 (Homo sapiens) (UniProt P19174). Nature of the assay: blockers of human PLCG1 activity – biochemical, fluorescence, purified enzyme, primary screen (AID 720700). To be noted: purified PLC-gamma1, fluorogenic substrate, at 12.2 µM, hits give high values.
On to `COc1ccccc1OP(C)(=O)Nc1ccccc1Br` (centres undefined), for which the inhibition is inactive: 2.68%.
As to `CC(C)(C)c1ccc(OP(C)(=O)O)cc1`, the inhibition is inactive: 3.42%.
Regarding `CP(=O)(Nc1ccc(Cl)cc1)Oc1ccc(F)cc1` (centres undefined), the inhibition was inactive: -5.64%.
The same measure for `CN(C)C(=O)c1c([N+](=O)[O-])cc([N+](=O)[O-])cc1[N+](=O)[O-]`: inactive: -0.61%.
Regarding `CCN(CC)CC(O)COC(=O)C(O)(c1ccccc1)C1CCCCC1` (centres undefined), the inhibition was inactive: 0.36%.
`COc1ccc(OP(C)(=O)Nc2ccc(Br)cc2)cc1` (centres undefined): the inhibition is inactive: 0.29%.
For the molecule `COc1ccccc1OP(C)(=O)Nc1c(C)n(C)n(-c2ccccc2)c1=O` (centres undefined), the inhibition was inactive: -1.44%.
`O=C(OCCCN1CCCC1)C(O)(c1ccccc1)C1CCCCC1` (centres undefined): the inhibition was inactive: -1.86%.
For `CP(=O)(Oc1ccccc1)N1CCOC1=O` (centres undefined), the inhibition was inactive: 0.37%.
Turning to `CCc1ccc(OP(C)(=O)Nc2cccnc2)cc1` (centres undefined), the inhibition is inactive: -1.03%.
For `Nc1ccc2c(ccc3cccnc32)n1.O=[N+]([O-])c1cc([N+](=O)[O-])c(O)c([N+](=O)[O-])c1`, the inhibition was inactive: -180%.
On to `CCOC(=O)c1ccc(NP(C)(=O)Oc2ccc(Cl)cc2)cc1` (centres undefined), for which the inhibition is inactive: 3.41%.
As to `CP(=O)(OC12CC3CC(CC(C3)C1)C2)OC12CC3CC(CC(C3)C1)C2`, the inhibition is inactive: 1.05%.
Turning to `CP(=O)(Nc1ccc(Cl)cc1Cl)Oc1ccccc1` (centres undefined), the inhibition is inactive: -2.04%.
The same measure for `CCCCCCCCCCCCCCCC1C[N+](C)(C)CCOP(C)(=O)O1` (centres undefined): inactive: 0.88%; for `CP(=O)(OCCOc1ccccc1)OCCOc1ccccc1`: inactive: 5.11%; for `O=C1C(O)=C([N+](=O)[O-])C(=O)C(O)=C1[N+](=O)[O-]`: inactive: 6.61%.
As for `Cc1cc(C)cc(OP(C)(=O)Nc2cccc(C(F)(F)F)c2)c1` (centres undefined), the inhibition is inactive: 0.3%.
The figure for `COc1ccccc1OP(C)(=O)Nc1ccc(C)c(C)c1` (centres undefined) is inactive: 0.71%; for `COc1ccc(OP(C)(=O)Nc2ccccc2Br)cc1` (centres undefined) it is inactive: -2.97%.
The same measure for `Cc1c(NP(C)(=O)Oc2ccc(C(C)C)cc2)c(=O)n(-c2ccccc2)n1C` (centres undefined): inactive: -2.18%; for `O=[N+]([O-])c1cc([N+](=O)[O-])c(Nc2ccccn2)c([N+](=O)[O-])c1`: inactive: 3.72%; for `CP(=O)(Nc1ccccn1)Oc1ccccc1` (centres undefined): inactive: -0.41%.
For the molecule `COc1ccccc1OP(C)(=O)Nc1ccc(C)cc1C` (centres undefined), the inhibition was inactive: -0.47%.
In the case of `CCc1ccc(OP(C)(=O)O)cc1`, the inhibition was inactive: 1.25%.
For the molecule `COc1ccccc1OP(C)(=O)Nc1ccc(Br)cc1` (centres undefined), the inhibition was inactive: 2.11%.
In the case of `COc1ccc(OP(C)(=O)Nc2ccccn2)cc1` (centres undefined), the inhibition was inactive: -0.36%.
Turning to `CN(C)CCOC(=O)C(O)(c1ccccc1)C1CCCC1` (centres undefined), the inhibition was inactive: 2.43%.
`O=C(OC1CN2CCC1CC2)c1ccc([N+](=O)[O-])cc1` (centres undefined): the inhibition was inactive: 9.14%.
On to `O=C(OCCN1CCN(CCOCc2ccccc2)CC1)C(O)(c1ccccc1)c1ccccc1`, for which the inhibition was inactive: 2.13%.
Consider `COc1ccc2c(c1O)-c1c(O)c(OC)cc3c1[C@H](C2)[N+](C)(C)CC3.O=[N+]([O-])c1cc([N+](=O)[O-])c([O-])c([N+](=O)[O-])c1[O-]`, for which the inhibition is inactive: -224%.
The same measure for `O=[N+]([O-])c1cc([N+](=O)[O-])c(Nc2ccc(Cl)cc2)c([N+](=O)[O-])c1`: inactive: 5.59%; for `CP(=O)(Nc1ccccc1F)Oc1ccccc1` (centres undefined): inactive: -0.83%; for `CC(C)c1ccc(OP(C)(=O)Nc2ccc(SC(F)(F)F)cc2)cc1` (centres undefined): inactive: 2.33%.
Regarding `Cc1c([N+](=O)[O-])cc([N+](=O)[O-])c(Br)c1[N+](=O)[O-]`, the inhibition was inactive: 8.14%.
In the case of `CCN(CC)CCCOC(=O)C(O)(c1ccccc1)C1CCCCC1` (centres undefined), the inhibition is inactive: 8.22%.
The same measure for `CP(=O)(Nc1ccccc1)Oc1ccc(F)cc1` (centres undefined): inactive: 1.6%; for `O=[N+]([O-])c1cc([N+](=O)[O-])c(OC2CCCCC2O)c([N+](=O)[O-])c1` (centres undefined): inactive: 0.86%; for `CCCCCOc1ccc(NP(C)(=O)Oc2ccc(Cl)cc2Cl)cc1` (centres undefined): inactive: 1.86%.
Turning to `CCN(CC)CCCNc1ccccc1[N+](=O)[O-].O=[N+]([O-])c1cc([N+](=O)[O-])c(O)c([N+](=O)[O-])c1`, the inhibition was inactive: 2.48%.
The same measure for `CCOC(=O)c1ccc(NP(C)(=O)Oc2ccc(F)cc2)cc1` (centres undefined): inactive: -0.25%; for `COc1ccc(OP(C)(=O)Nc2ccc(SC(F)(F)F)cc2)cc1` (centres undefined): inactive: 0.32%; for `O=[N+]([O-])c1ccc(OP2(=O)COCCO2)cc1` (centres undefined): inactive: 2.49%.
In the case of `Cc1cc(-c2cccc3ccccc23)c(C)cn1.O=[N+]([O-])c1cc([N+](=O)[O-])c(O)c([N+](=O)[O-])c1`, the inhibition is inactive: -2.08%.
`O=[N+]([O-])c1cc([N+](=O)[O-])c(NCC2CCS(=O)(=O)C2)c([N+](=O)[O-])c1` (centres undefined): the inhibition is inactive: -0.5%.
The figure for `Cc1c(C(c2ccc3c(c2)OCO3)c2c(C)n(C)n(-c3ccccc3)c2=O)c(=O)n(-c2ccccc2)n1C.O=[N+]([O-])c1cc([N+](=O)[O-])c(O)c([N+](=O)[O-])c1` is inactive: -1.31%; for `COc1ccc(OP(C)(=O)Nc2cccc(Br)c2)cc1` (centres undefined) it is inactive: 3.4%; for `CN(C)CCOC(=O)C(O)(c1ccccc1)C1CCCCC1` (centres undefined) it is inactive: 4.91%.
Take `COc1ccc(NP(C)(=O)Oc2ccccc2OC)cc1` (centres undefined): the inhibition is inactive: -0.55%.
The same measure for `CP(=O)(Nc1ccc2c(c1)OCCO2)Oc1ccccc1` (centres undefined): inactive: 2.9%; for `Cc1ccccc1NP(C)(=O)Nc1ccccc1C`: inactive: 1.71%; for `O=[N+]([O-])c1cc([N+](=O)[O-])c(C(F)(F)F)c([N+](=O)[O-])c1O`: active: 11.8%.
On to `CP(=O)(Nc1ccc(SC(F)(F)F)cc1)Oc1ccc(F)cc1` (centres undefined), for which the inhibition was inactive: 3.34%.
Regarding `CCOP(C)(=S)SCC(=O)NC(C)(CC)C(=O)O` (centres undefined), the inhibition is inactive: 2.85%.
Regarding `CCOP(=O)(CC)OCC`, the inhibition is inactive: -2.44%.
The same measure for `O=[N+]([O-])c1cc([N+](=O)[O-])c(-c2cnn(-c3ccccc3)c2)c([N+](=O)[O-])c1`: inactive: -1.61%; for `Cc1nc2ccc3ccccc3c2s1.O=[N+]([O-])c1cc([N+](=O)[O-])c(O)c([N+](=O)[O-])c1`: active: 11.3%.
In the case of `O=[N+]([O-])c1cc([N+](=O)[O-])c(-n2nnc3ccccc32)c([N+](=O)[O-])c1`, the inhibition is inactive: -2.28%.
As to `CN(Cc1cccnc1)C(=O)COc1ccc(Cl)c(Cl)c1.O=[N+]([O-])c1cc([N+](=O)[O-])c(O)c([N+](=O)[O-])c1`, the inhibition was inactive: 2.62%.
In the case of `CN1CCCCC1COC(=O)C1(O)c2ccccc2CCc2ccccc21` (centres undefined), the inhibition was inactive: 3.36%.
Regarding `COc1ccccc1OP(C)(=O)Nc1c(C)cccc1C` (centres undefined), the inhibition is inactive: 0.79%.
As to `COc1ccc(-c2ccccn2)cc1.O=[N+]([O-])c1cc([N+](=O)[O-])c(O)c([N+](=O)[O-])c1`, the inhibition was inactive: -0.09%.
As for `CCCOc1ccc(NP(C)(=O)Oc2ccc(Cl)cc2)cc1` (centres undefined), the inhibition is inactive: -0.9%.
The same measure for `CP(=O)(Nc1ccc(SC(F)(F)F)cc1)Oc1ccccc1` (centres undefined): inactive: -2.3%; for `O=[N+]([O-])c1cc([N+](=O)[O-])c(Nc2nnnn2CCO)c([N+](=O)[O-])c1`: inactive: 4.08%.
`CCOC(=O)C(CC)C1=NC(C)(C)Cc2ccccc21.O=[N+]([O-])c1cc([N+](=O)[O-])c(O)c([N+](=O)[O-])c1` (centres undefined): the inhibition is inactive: 3.13%.
The figure for `CC1=NCCc2c1[nH]c1ccccc21.O=[N+]([O-])c1cc([N+](=O)[O-])c(O)c([N+](=O)[O-])c1` is inactive: -133%; for `O=C(O)c1cccc(Nc2c([N+](=O)[O-])cc([N+](=O)[O-])cc2[N+](=O)[O-])c1` it is inactive: 7.69%; for `Cc1ccc(C)c(NP(C)(=O)Oc2ccccc2)c1` (centres undefined) it is inactive: 1.84%.
The same measure for `Cc1cc(C)cc(OP(C)(=O)Nc2ccccn2)c1` (centres undefined): inactive: -0.36%; for `CP(=O)(Nc1cccc(Br)c1)Oc1ccccc1` (centres undefined): inactive: 2.08%; for `COc1ccccc1OP(C)(=O)Nc1cccc(Br)c1` (centres undefined): inactive: 2.26%.
On to `CCOC(=O)c1ccc(NP(C)(=O)Oc2cc(C)cc(C)c2)cc1` (centres undefined), for which the inhibition was inactive: 4.31%.
Take `Cc1cc(C)cc(OP(C)(=O)Nc2ccc(C)cc2C)c1` (centres undefined): the inhibition was inactive: 5.69%.
Regarding `COc1ccccc1-c1ccccn1.O=[N+]([O-])c1cc([N+](=O)[O-])c(O)c([N+](=O)[O-])c1`, the inhibition is inactive: 0.19%.
Regarding `CCN(CC)CCCOC(=O)C(O)(c1ccccc1)c1ccccc1`, the inhibition is inactive: 3.89%.
Take `COc1ccccc1OP(C)(=O)Nc1ccc(C)cc1` (centres undefined): the inhibition was inactive: 3.99%.
The same measure for `Cc1ccc(NP(C)(=O)Oc2ccccc2)c(C)c1` (centres undefined): inactive: -0.43%.
The same measure for `CCOC(=O)c1ccc(NP(C)(=O)Oc2ccccc2)cc1` (centres undefined): inactive: -0.55%; for `Cc1cc(C)cc(OP(C)(N)=O)c1` (centres undefined): inactive: 2.16%; for `COc1ccccc1OP(C)(=O)Nc1cc(Cl)ccc1C` (centres undefined): inactive: 0.04%.
For the molecule `COc1ccc(OP(C)(=O)Nc2cccc(F)c2)cc1` (centres undefined), the inhibition is inactive: 1.38%.
The figure for `O=[N+]([O-])c1cc([N+](=O)[O-])c(Nc2cccnc2)c([N+](=O)[O-])c1` is inactive: 4.02%.
The figure for `O=[N+]([O-])c1ccc2c(c1)C=Nc1ccccc1O2` is inactive: 0.13%; for `CC(C)(C)c1ccc(OP(C)(=O)Nc2ccc(SC(F)(F)F)cc2)cc1` (centres undefined) it is inactive: -0.07%; for `Cc1cccc(C)c1OP(C)(N)=O` (centres undefined) it is inactive: 3.33%.
Turning to `CP(=S)(Nn1cnnc1)Oc1ccccc1` (centres undefined), the inhibition is inactive: 0.56%.
For `CP(=O)(Nc1ccccc1Br)Oc1ccccc1` (centres undefined), the inhibition is inactive: -1.69%.
As for `COc1ccccc1OP(C)(=O)Nc1ccccc1` (centres undefined), the inhibition is inactive: 0.9%.
Take `O=[N+]([O-])c1cc([N+](=O)[O-])c(O)c([N+](=O)[O-])c1.c1ccc(Oc2ccncc2)cc1`: the inhibition was inactive: 2.3%.
The figure for `CCOC(=O)c1ccc(NP(C)(=O)Oc2ccc(OC)cc2)cc1` (centres undefined) is inactive: -0.52%; for `CCOP(C)(=S)SCC(=O)NC(C)C(=O)O` (centres undefined) it is inactive: -1.6%.
For `CP(=O)(Nc1ccccn1)Oc1ccc(Cl)cc1` (centres undefined), the inhibition is inactive: -1.47%.
Regarding `CP(=O)(Nc1ccc(SC(F)(F)F)cc1)Oc1ccc(Cl)cc1` (centres undefined), the inhibition was inactive: -1.75%.
For the molecule `Cc1cccc(C)c1OP(C)(=O)Nc1ccc(SC(F)(F)F)cc1` (centres undefined), the inhibition is inactive: -10.1%.
As to `CP(=O)(Oc1ccccc1)OC(c1ccccc1)C(F)(F)F` (centres undefined), the inhibition is inactive: 0.64%.
Turning to `CP(=O)(NC(=O)Nc1ccccc1)Oc1ccccc1` (centres undefined), the inhibition was inactive: 0.89%.
Turning to `CCc1ccc(OP(C)(=O)N2CCN(c3ccc([N+](=O)[O-])cc3)CC2)cc1` (centres undefined), the inhibition was inactive: 2.48%.
Regarding `Cc1cc(C)cc(OP(C)(=O)Nc2ccc(SC(F)(F)F)cc2)c1` (centres undefined), the inhibition was inactive: 0.43%.

Source of the values: PubChem BioAssay AID720700 (The Scripps Research Institute Molecular Screening Center, 2013).
